US6613534B2, “MAP-2 as a determinant of metastatic potential” (Wake Forest University Health Sciences, priority 2001, dated 2003)

Tested on: MAP-2c protein in SK-MEL-19 cells
Assay: Western blot (mAb HM-2) of MAP-2 protein in SK-MEL-19 cells
Settings: 5 day HMBA treatment

For `CC(=O)NCCCCCCNC(C)=O` [HMBA, hexamethylene bisacetamide], the “amount of MAP-2c protein” value was “an increase in the amount of MAP-2c protein was apparent”.
